Rows were chosen to be rich in hits. Some 16% of all compounds tested hit in one or more screens of this group.
TDP1 inh – TDP1 (human) enzyme inhibition; Q9NUW8; recombinant TDP1, AlphaScreen DNA substrate cleavage; 350,000 compounds, 0.28% hits; Potency, µM (series often up to 130 µM), for the others: top-dose activity change, negative = inhibition, hits mostly inhibitors; note: potency is the fitted concentration of half-maximal effect; % is set by controls: 0 for no effect and ±100 for the full control effect; nearly all actives have a fitted effect of over 40% in size
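Recombinant E. coli-expressed Tdp1 (1 nM) preincubated with compound 15 min at RT, then 5'-biotin/3'-phosphotyrosine-FITC DNA substrate (15 nM) added for 5 min. AlphaScreen beads (10 ug/ml) added, 10 min RT; tyrosine-FITC cleavage read as signal loss.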
uPA surface inh – inhibitors of cell surface uPA generation; 330,000 compounds, 0.31% hits; cell surface uPA generation assay, qHTS; Potency, µM (series often up to 38.3 µM), for the others: at the highest dose activity change, negative = inhibition, actives largely listed as inhibitors; AID 540303; active = well fitted inhibition curve with a large enough effect; inconclusive = small, poorly fitted or top-dose-only effect; inactive = no such curve, though single readings can be large or run the other way; tested in mouse RAW 264.7 cells; note: potency is the fitted concentration of half-maximal effect; % is set by controls: 0 for no effect and ±100 for the full control effect; nearly all actives have a fitted effect of over 55% in size
TDP1 cell CPT – growth inhibition of DT40 Tdp1-/-;hTDP1 cells with camptothecin (screen for TDP1 inhibitors); Potency, µM (doses to about 46.2 µM), for inactives: at the top dose activity change, negative = growth inhibition, hits mostly inhibitors; chicken DT40 Tdp1-/-;hTDP1 cells + 20 nM CPT, ATP luminescence, 48 h; 420,000 compounds, 12% hits; note: potency is the fitted concentration of half-maximal effect; % is set by controls: 0 for no effect and ±100 for the full control effect; nearly all actives have a fitted effect of over 55% in size
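Chicken DT40 Tdp1-/- cells stably complemented with human TDP1 were seeded at 400 cells/well in medium containing 20 nM camptothecin, exposed to pin-transferred compounds, and grown at 37 °C for at least 48 hr. Viability was read as ATP luminescence.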
DT40 TDP1 no CPT – qHTS for Inhibitors of human tyrosyl-DNA phosphodiesterase 1 (TDP1): qHTS in cells in absence of CPT | Potency, µM (highest dose often 46.2 µM), without a hit: top-dose activity change, negative = growth inhibition, hits mostly inhibitors | 420,000 compounds, 15% hits | AID 686978, 2013 | DT40 Tdp1-/- hTDP1 cells, no CPT, ATP luminescence, 48 h; note: potency is the fitted concentration of half-maximal effect; % is set by controls: 0 for no effect and ±100 for the full control effect; nearly all actives have a fitted effect of over 55% in size
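No-CPT arm: Tdp1-/-;hTDP1 DT40 cells (400/well) plus compounds, incubated ≥48 hr at 37 °C. Readout CellTiter-Glo luminescence.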
miR-21 reporter – miR-21 reporter, rising signal. 340,000 tested, under 10 active. Potency, µM (highest dose often 38.3 µM), for the others: at the highest dose reporter change, positive = more light. HeLa miR-21 FLuc reporter, luciferase, 48 h. AID 2288; active = well fitted rising curve with a large enough effect; inconclusive = small, poorly fitted or top-dose-only effect; inactive = no such curve, though single readings can be large or run the other way;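 further: % of control where 0% means no effect; miR-21 action dims this reporter so a rising signal means less miR-21 action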
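Compounds were titrated across several concentrations (up to approximately 40 uM) and incubated 48 hours with HeLa miR-21-FLuc reporter cells (miR-21 target sequence downstream of FLuc, endogenous miR-21). Readout was firefly luciferase luminescence after lytic detection reagent.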
* hit, by the source's call; u = inconclusive; x = not tested or not shown; [ ] = another dose, or the depositor's remark. Unless noted, calls come from the whole dose curve; as a rule, active = well fitted curve in the direction sought with a large enough effect; inconclusive = small, poorly fitted or top-dose-only effect, or another doubt; inactive = no such curve, though single readings can be large; an effect the other way counts as inactive or inconclusive.

Short keys: A = TDP1 inh; B = uPA surface inh; C = TDP1 cell CPT; D = DT40 TDP1 no CPT; E = miR-21 reporter
[1] Cc1cc(-c2ccccc2)nc2oc(C(=O)NN)c(N)c12
  A: -4%; B: 2%; C: u; D: u; E: 6%
[2] O=C(NC1CCCCC1)C(c1cc2c(cc1[N+](=O)[O-])OCO2)N1CCCCC1 (centres undefined)
  A: -3%; B: x; C: x; D: x; E: -24%
[3] COCCN1Cc2cc3cc(C)ccc3nc2SC1=Nc1cccc(OC)c1
  A: 7%; B: 2%; C: u; D: 0%; E: 1%
[4] Cc1cccc(N=C2Sc3nc4c(C)c(C)ccc4cc3CN2CCN2CCOCC2)c1
  A: 5%; B: -5%; C: 18µM*; D: 23µM*; E: -10%
[5] C/C(CCC(C)C)=N\Nc1cc(C)c2ccccc2n1
  A: 8%; B: 3%; C: 10µM*; D: 7.3µM*; E: -6%
[6] Cc1nnc(NC(=O)C2CCCN2S(=O)(=O)c2ccc(Cl)cc2)s1 (centres undefined)
  A: 0%; B: 1%; C: 6%; D: 1%; E: 0%
[7] C[C@H](CO)N1C[C@H](C)[C@H](CN(C)C(=O)Cc2ccccc2)OCc2cnnn2CCCC1=O
  A: x; B: x; C: -18%; D: -24%; E: x
[8] COc1ccc(CCN=C(N)NS(=O)(=O)c2ccccc2)cc1
  A: 5%; B: -6%; C: u; D: -25%; E: 1%
[9] COc1ccc(CCN=C(N)Nc2nc(C)cc(C)n2)cc1
  A: 1%; B: -5%; C: 7.3µM*; D: 7.3µM*; E: 25%
[10] Cc1ccc(CCNC(=O)c2ccc(CS(=O)(=O)Cc3ccc(F)cc3)o2)cc1
  A: 0%; B: 8%; C: -7%; D: -25%; E: 0%
[11] CC(C)c1onc(C(=O)N2CCCCCC2)c1[N+](=O)[O-]
  A: 1%; B: -4%; C: 0%; D: u; E: 6%
[12] CC(C)c1onc(C(=O)NC2CCCCC2)c1[N+](=O)[O-]
  A: 1%; B: 2%; C: 21µM*; D: 21µM*; E: -5%
[13] COCCSc1ccccc1C(=O)Nc1nnc(C)s1
  A: 4%; B: 0%; C: 2%; D: -3%; E: -2%
[14] Cc1ccc(-c2onc(C)c2C)cc1S(=O)(=O)NCc1ccco1
  A: 8%; B: x; C: 23µM*; D: u; E: 7%
[15] Cc1cc(-c2ccc(C)c(S(=O)(=O)NCC3CCN(Cc4ccccc4F)CC3)c2)on1
  A: 2%; B: -12%; C: 18µM*; D: 23µM*; E: 12%

Only TDP1 inh, for 2 of the compounds above:
nr	mol	TDP1 inh
11	CC(C)c1onc(C(=O)N2CCCCCC2)c1[N+](=O)[O-]	1%
3	COCCN1Cc2cc3cc(C)ccc3nc2SC1=Nc1cccc(OC)c1	7%

(further entries)
Values run as follows: TDP1 inh	uPA surface inh	TDP1 cell CPT	DT40 TDP1 no CPT	miR-21 reporter
#16 COc1ccccc1CN1CCC(CNS(=O)(=O)c2cc(-c3onc(C)c3C)ccc2OC)CC1
    2%	u	21µM*	21µM*	-10%
#17 COc1ccc(-c2onc(C)c2C)cc1S(=O)(=O)NCc1ccc(C)o1
    0%	x	2.9µM*	3.3µM*	21%
#18 CCc1ccc(-c2cc(C)no2)cc1S(=O)(=O)NCc1ccco1
    2%	-14%	21µM*	u	12%
#19 CC(C)(C)c1ccc(-c2noc(CCC(=O)NCc3ccco3)n2)cc1
    1%	-8%	18µM*	26µM*	29%
#20 Cc1cccc(-c2noc(CCCC(=O)NCc3ccco3)n2)c1
    6%	x	15µM*	16µM*	16%
#21 CN1C(=O)CCC1c1cccnc1 (centres undefined)
    7%[56.1 µM]	x	-7%	-7%	x
#22 CCOC(=O)c1nnn(-c2nonc2-n2cccc2)c1CCl
    -2%	-7%	4.6µM*	6.5µM*	-1%
#23 O=C(O)[C@H]1/C(=C/CO)O[C@@H]2CC(=O)N21
    x	x	-1%	-14%	x
#24 CC(=O)N1N=C(c2ccc(C(C)(C)C)cc2)OC1(C)C
    x	-1%	15µM*	10µM*	0%
#25 CC(=O)N1N=C(c2ccc3ccccc3c2)OC1(C)C
    3%	-16%	18µM*	u	-1%
#26 CC(=O)N1N=C(c2ccc(Br)cc2)OC12CCCC2
    -1%	2%	-9%	-20%	-1%
#27 COc1ccc(CC2(C)OC(c3ccccc3)=NN2C(C)=O)cc1 (centres undefined)
    3%	4%	12%	-5%	3%
#28 COc1ccc(NC(=O)N2CCCC2C(=O)Nc2ccc(C)c(Cl)c2)cc1 (centres undefined)
    5%	-2%	1%	-21%	-5%
#29 COc1ccc(CC(=O)N2CC(=O)Nc3ccc(Br)cc3C2c2ccc(F)cc2)cc1 (centres undefined)
    12%	x	u	u	23%
#30 COC(=O)c1ccc(NC(=O)c2cccc(C)c2)cc1
    2%	6%	-2%	-16%	-45%

Entries listed so far containing a tert-butyl group:
Values run as follows: TDP1 inh	uPA surface inh	TDP1 cell CPT	DT40 TDP1 no CPT	miR-21 reporter
#19 CC(C)(C)c1ccc(-c2noc(CCC(=O)NCc3ccco3)n2)cc1
    1%	-8%	18µM*	26µM*	29%
#24 CC(=O)N1N=C(c2ccc(C(C)(C)C)cc2)OC1(C)C
    x	-1%	15µM*	10µM*	0%
